In patent US5629347A, “Aromatic compounds, pharmaceutical compositions containing them and their use in therapy” (Merck Sharp & Dohme Ltd., priority 1991, dated 1997) one finds IC50 data, which are given here for 6 molecules.

Chains of the proteins cited; added tags and fusions are not shown.
UniProt P25103, whole entry: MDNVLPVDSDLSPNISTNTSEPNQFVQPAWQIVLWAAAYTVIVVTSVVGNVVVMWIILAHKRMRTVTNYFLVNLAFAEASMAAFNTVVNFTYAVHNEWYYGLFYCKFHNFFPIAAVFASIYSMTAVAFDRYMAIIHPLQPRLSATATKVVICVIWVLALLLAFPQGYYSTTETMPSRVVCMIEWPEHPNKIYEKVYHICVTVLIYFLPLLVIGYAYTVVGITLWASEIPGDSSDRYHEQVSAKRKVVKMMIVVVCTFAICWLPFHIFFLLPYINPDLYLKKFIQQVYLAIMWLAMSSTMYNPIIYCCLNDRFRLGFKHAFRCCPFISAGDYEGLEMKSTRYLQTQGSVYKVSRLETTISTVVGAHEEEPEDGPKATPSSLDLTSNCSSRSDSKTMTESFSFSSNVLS

Structures can show the parent of a compound that is named as a salt.

This assay deals with human NK1R (Homo sapiens, UniProt P25103). As to the kind of experiment: biochemical. Type of assay: binding. Conditions: displacement of 125I-substance P; human NK1R in COS or CHO cells. How it is done:
To express the cloned human neurokinin-1-receotor (NK1R) transiently in COS, the cDNA for the human NK1R was cloned into the expression vector pCDM9 which was derived from pCDM8 (INVITROGEN) by inserting the ampicillin resistance gene (nucleotide 1973 to 2964 from BLUESCRIPT SK+ (trademark, […], La Jolla, Calif., U.S.A.)) into the Sac II site. Transfection of 20 ug of the plasmid DNA into 10 million COS cells was achieved by electroporation in 800 μl of transfection buffer (135 mM NaCl, 1.2 mM CaCl2, 1.2 mM MgCl2, 2.4 mM K2 HPO4, 0.6 mM KH2 PO4, 10 mM glucose, 10 mM N-2-hydroxyethyl-piperazine-N'-2-ethane sulphonic acid (HEPES) pH 7.4) at 260 V and 950 μF using the IBI GENEZAPPER (trademark IBI, New Haven, Conn., U.S.A.). The cells were incubated in 10% fetal calf serum, 2 mM glutamine, 100 U/ml penicillin-streptomycin, and 90% DMEM media (GIBCO, Grand Island, N.Y., U.S.A.) in 5% CO2 at 37° C. for three days before the binding assay.
To establish a stable cell line expressing cloned human NK1R, the cDNA was subcloned into the vector pRcCMV (INVITROGEN). Transfection of 20 ug of the plasmid DNA into CHO cells was achieved by electroporation in 800 μl of transfection buffer supplemented with 0.625 mg/ml Herring sperm DNA at 300 V and 950 μF using the IBI GENEZAPPER (IBI). The transfected cells were incubated. in CHO media [10% fetal calf serum, 100 U/ml penicillin-streptomycin, 2 mM glutamine, 1/500 hypoxanthinethymidine (ATCC), 90% IMDM media (JRH BIOSCIENCES, Lenexa, Kans., U.S.A.), 0.7 mg/ml G418 (GIBCO)] in 5% CO2 at 37° C. until colonies were visible. Each colony was separated and propagated. The cell clone with the highest number of human NK1R was selected for subsequent applications such as drug screening.
The binding assay of human NK1R expressed in either COS or CHO cells is based on the use of ^125 I-substance P (^125 I-SP, from DU PONT, Boston, Mass.) as a radioactively labeled ligand which competes with unlabeled substance P or any other ligand for binding to the human NK1R. […] The tubes were incubated at 4° C. or at room temperature for 1 hour with gentle shaking. The bound radioactivity was separated from unbound radioactivity by GF/C filter (BRANDEL, Gaithersburg, Md.) which was prewetted with 0.1% polyethylenimine. The filter was washed with 3 ml of wash buffer (50 mM Tris pH 7.5, 5 mM MnCl2, 150 mM NaCl) three times and its radioactivity was determined by gamma counter.
A general note: Displacement assays read how much labelled ligand stays bound in the presence of the test substance.
What is called IC50 is the concentration that inhibits the measured activity by half. A higher IC50 goes with a need for much substance. For the molecule `NCCNC(COCc1cc(C(F)(F)F)cc(C(F)(F)F)c1)C(c1ccccc1)c1ccccc1` (stereo not drawn) [Example 35, 2-((2-Ammonium)ethylammonium)-1-((3,5-bis(trifluoromethyl)phenyl)methyloxy)-3,3-diphenylpropane bis oxalate salt], the half-inhibitory concentration (IC50) is 5 nM.
The result for `CNC(=O)CNC(COCc1cc(C(F)(F)F)cc(C(F)(F)F)c1)C(c1ccccc1)c1ccccc1` (stereo not drawn) [Example 59, 1-((3,5-Bis(trifluoromethyl)phenyl)methyloxy)-2-(((N-methylcarboxamido)methyl)amino)-3,3-diphenylpropane] reads 1.5 nM.
Regarding `NC(COCc1cc(C(F)(F)F)cc(C(F)(F)F)c1)C(c1ccccc1)c1ccccc1` (stereo not drawn) [Example 16, 2-Ammonium-1-((3,5-bis(trifluoromethyl)phenyl)methyloxy)-3,3-diphenylpropane oxalate salt], the half-maximal inhibitory concentration (IC50) is 9 nM.
Molecule `NC(=O)CN(CC(N)=O)C(COCc1cc(C(F)(F)F)cc(C(F)(F)F)c1)C(c1ccccc1)c1ccccc1` (stereo not drawn) [Example 64, 2-(Bis((carboxamido)methyl)ammonium)-1-((3,5-bis(trifluoromethyl)phenyl)methyloxy)-3,3-diphenylpropane oxalate salt] showed a 50% inhibitory concentration (IC50) of 5 nM.
Turning to `CN(C)C(COCc1cc(C(F)(F)F)cc(C(F)(F)F)c1)C(c1ccccc1)c1ccccc1` (stereo not drawn) [Example 17, 2-Dimethylammonium-1-((3,5-bis-trifluoromethylphenyl)methyloxy)-3,3-diphenylpropane], the IC50 was found to be 5 nM.
On to `CN1CCN(C(=O)CNC(COCc2cc(C(F)(F)F)cc(C(F)(F)F)c2)C(c2ccccc2)c2ccccc2)CC1` (stereo not drawn) [Example 53, N-(1-((3',5'-Bis(trifluoromethyl)phenyl)methyloxy)-3,3-diphenylprop-2-yl)glycine N'-methylpiperazinide oxalate salt], for which the half-inhibitory concentration (IC50) is 5 nM.
